For 1 compound, fraction unbound results are on record in ChEMBL document CHEMBL1287723, “The discovery of new spirocyclic muscarinic M3 antagonists” (Bioorg Med Chem Lett, 2010).

For this data set, the species on record is Homo sapiens. The data set can be described thus: Fraction unbound in human plasma.

Consider `Cc1nc(C(=O)N2CCOC3(CCN(Cc4ccc(Cl)cc4)CC3)C2)cs1`, for which the fraction unbound came out at 0.57.

In general, fraction unbound refers to free concentration divided by total concentration. Higher therefore signals much free substance.
